The results in this text go back to patent publication US20250092033A1, “HETEROAROMATIC NITROGEN-OXIDE COMPOUND, PREPARATION METHOD THEREFOR, AND USE THEREOF” (BEIJING AVISTONE BIOTECHNOLOGY CO., LTD., priority 2021, published 2025).

The chains behind the UniProt entries cited, without tags or fusion partners. Where a name states a change or a piece, a line headed by the entry shows the natural chain unless it says otherwise. Residues count along the entry.
UniProt P08581, 25-1390 limits assumed: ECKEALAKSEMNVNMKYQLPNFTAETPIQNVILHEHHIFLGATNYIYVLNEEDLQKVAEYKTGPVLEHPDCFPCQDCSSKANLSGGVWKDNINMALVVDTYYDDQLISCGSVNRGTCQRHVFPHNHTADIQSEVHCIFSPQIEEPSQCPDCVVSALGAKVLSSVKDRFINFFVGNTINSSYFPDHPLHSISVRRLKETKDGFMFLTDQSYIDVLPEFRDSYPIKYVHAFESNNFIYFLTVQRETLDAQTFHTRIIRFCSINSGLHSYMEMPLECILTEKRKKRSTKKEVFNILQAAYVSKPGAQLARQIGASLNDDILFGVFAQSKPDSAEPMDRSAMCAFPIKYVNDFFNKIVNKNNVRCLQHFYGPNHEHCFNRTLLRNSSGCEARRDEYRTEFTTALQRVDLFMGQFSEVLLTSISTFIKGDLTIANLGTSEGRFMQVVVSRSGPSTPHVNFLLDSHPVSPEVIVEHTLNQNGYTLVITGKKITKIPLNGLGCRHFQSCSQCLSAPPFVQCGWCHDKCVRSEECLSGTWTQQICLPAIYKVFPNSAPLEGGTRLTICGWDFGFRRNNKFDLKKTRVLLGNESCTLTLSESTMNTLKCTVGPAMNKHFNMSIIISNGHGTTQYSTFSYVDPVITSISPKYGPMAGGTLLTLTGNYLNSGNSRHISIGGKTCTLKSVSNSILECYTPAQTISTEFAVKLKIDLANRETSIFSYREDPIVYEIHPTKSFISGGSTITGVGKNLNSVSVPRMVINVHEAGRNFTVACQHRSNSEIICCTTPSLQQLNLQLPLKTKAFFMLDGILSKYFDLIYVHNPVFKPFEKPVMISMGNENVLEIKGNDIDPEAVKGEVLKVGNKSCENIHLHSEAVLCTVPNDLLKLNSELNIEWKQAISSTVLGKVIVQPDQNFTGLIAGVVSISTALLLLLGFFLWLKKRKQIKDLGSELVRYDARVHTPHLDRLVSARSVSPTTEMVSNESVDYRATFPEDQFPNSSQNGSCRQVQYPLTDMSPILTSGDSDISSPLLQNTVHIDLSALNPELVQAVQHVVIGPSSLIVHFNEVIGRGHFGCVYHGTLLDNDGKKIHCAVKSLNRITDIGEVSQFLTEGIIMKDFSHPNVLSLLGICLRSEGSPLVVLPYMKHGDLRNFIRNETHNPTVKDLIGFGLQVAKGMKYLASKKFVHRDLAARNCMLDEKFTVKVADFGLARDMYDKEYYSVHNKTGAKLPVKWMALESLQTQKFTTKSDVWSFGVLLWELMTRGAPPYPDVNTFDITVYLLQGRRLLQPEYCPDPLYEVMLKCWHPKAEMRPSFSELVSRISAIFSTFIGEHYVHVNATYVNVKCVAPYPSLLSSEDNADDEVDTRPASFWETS
UniProt P08581, 25-1390 D1228N limits assumed: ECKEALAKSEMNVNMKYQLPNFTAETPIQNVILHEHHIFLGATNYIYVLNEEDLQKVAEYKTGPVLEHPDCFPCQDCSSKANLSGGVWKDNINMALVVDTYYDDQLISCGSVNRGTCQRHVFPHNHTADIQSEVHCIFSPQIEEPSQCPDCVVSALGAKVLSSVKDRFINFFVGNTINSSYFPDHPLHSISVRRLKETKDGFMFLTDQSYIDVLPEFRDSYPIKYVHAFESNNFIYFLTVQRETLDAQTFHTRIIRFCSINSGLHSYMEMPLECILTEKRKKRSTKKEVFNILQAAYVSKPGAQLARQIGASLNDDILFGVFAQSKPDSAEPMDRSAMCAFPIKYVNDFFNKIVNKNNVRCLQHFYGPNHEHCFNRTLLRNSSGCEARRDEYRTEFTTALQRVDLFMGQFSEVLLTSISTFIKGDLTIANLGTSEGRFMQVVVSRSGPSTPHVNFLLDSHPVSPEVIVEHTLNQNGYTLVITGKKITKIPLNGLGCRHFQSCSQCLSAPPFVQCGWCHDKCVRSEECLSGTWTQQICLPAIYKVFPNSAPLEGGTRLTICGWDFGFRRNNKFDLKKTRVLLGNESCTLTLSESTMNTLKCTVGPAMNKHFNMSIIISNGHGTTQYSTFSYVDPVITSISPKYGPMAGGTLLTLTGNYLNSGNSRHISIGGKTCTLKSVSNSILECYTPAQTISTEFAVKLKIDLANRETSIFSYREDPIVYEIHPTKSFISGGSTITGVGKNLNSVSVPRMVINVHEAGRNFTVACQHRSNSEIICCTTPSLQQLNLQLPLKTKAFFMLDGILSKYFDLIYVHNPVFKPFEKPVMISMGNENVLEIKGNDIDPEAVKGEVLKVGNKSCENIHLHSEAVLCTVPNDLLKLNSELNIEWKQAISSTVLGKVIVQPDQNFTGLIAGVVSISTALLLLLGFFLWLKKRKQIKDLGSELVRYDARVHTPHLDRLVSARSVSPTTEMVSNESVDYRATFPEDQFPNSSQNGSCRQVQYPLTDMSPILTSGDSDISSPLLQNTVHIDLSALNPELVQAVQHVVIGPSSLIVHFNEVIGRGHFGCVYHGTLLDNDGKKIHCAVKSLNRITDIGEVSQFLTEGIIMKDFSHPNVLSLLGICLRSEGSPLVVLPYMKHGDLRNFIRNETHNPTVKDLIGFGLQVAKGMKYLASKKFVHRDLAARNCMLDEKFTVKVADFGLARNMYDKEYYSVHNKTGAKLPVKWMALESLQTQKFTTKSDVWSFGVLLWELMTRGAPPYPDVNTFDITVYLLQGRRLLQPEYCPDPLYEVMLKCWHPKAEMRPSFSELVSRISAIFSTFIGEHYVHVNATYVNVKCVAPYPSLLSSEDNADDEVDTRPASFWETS
UniProt P08581, 25-1390 F1200I limits assumed: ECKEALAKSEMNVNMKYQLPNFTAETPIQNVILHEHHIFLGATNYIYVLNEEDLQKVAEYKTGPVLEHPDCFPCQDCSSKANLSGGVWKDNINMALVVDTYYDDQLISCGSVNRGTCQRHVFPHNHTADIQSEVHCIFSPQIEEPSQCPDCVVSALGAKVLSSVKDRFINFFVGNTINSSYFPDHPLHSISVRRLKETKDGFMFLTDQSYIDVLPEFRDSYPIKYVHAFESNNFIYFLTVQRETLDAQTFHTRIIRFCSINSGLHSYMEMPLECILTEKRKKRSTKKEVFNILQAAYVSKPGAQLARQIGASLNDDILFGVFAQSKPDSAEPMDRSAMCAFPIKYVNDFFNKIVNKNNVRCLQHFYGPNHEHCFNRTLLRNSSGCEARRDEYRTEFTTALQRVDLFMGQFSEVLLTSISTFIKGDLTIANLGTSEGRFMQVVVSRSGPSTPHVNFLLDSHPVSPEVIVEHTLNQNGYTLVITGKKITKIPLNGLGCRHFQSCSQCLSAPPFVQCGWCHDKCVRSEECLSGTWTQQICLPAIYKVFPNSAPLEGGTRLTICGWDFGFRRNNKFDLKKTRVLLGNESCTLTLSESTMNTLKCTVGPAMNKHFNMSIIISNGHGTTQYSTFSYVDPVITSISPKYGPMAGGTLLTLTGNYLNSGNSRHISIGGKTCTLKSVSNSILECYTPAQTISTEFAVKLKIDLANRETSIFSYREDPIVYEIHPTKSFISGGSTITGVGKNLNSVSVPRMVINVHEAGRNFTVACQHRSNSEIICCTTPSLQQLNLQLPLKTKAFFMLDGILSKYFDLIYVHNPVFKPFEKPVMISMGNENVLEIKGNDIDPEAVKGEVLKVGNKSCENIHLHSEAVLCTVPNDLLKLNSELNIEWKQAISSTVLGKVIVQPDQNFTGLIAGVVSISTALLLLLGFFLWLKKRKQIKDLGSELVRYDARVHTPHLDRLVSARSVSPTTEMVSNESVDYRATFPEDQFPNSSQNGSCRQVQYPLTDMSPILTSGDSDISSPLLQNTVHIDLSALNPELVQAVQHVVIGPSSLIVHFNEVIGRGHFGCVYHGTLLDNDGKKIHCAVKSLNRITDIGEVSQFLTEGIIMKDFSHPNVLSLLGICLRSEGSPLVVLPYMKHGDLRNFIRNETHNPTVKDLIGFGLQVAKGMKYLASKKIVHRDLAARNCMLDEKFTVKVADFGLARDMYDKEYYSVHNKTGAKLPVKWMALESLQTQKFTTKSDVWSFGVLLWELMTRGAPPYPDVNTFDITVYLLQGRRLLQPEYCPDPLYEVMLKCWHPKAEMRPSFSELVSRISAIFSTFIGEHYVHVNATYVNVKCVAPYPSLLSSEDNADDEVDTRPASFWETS

The target in one assay is MET D1228N (Homo sapiens, UniProt P08581, D1228N). Description: Kinase inhibition experiment (HTRF KinEASE-TK kit), mutant MET D1228N. The class given is biochemical. The settings on record: read-out: IC50 (nM) of inhibition of mutant D1228N MET kinase, 10 concentrations, 3-fold dilution. The procedure: (§1) The activity of the compounds was determined by detecting the residual amount of ATP after reacting with wild-type or mutant MET protein kinase by using an HTRF KinEASE-TK kit. […]
(§2) The compounds were determined on the selected kinase, the solvent control was set and a total of 10 concentrations were detected, diluted 3-fold, 2 replicates per concentration.
(§3) 1 volume of 5× kinase reaction buffer and 4 volumes of water; 5 mM MgCl2; 1 mM DTT; 1 mM MnCl2; or 2500 nm SEB.
(§4) 1) 10 nl or 4 μlof the diluted compound was transferred to each well of the reaction plate (784075 or 264706, Greiner or Thermo) with a pipette, the reaction plate was sealed with a sealing plate, and centrifuged at 1000 for 1 minute.
(§5) 2) 2× MET was prepared from 1× enzyme reaction buffer, 5 μl or 2 μl kinase was added to each well of the reaction plate, the reaction plate was sealed with a sealing plate, centrifuged at 1000 g for 30 seconds and incubated at room temperature for 10 min.
(§6) 3) a mixed solution of 2× TK-substrate-biotin and ATP were prepared from 1× enzyme reaction buffer solution, 5 μl or 2 μl TK-substrate-biotin/ATP of the mixed solution was added into a reaction plate, the reaction plate was sealed with a sealing plate, centrifuged at 1000 g for 30 seconds and reacted for 50 minutes or 10 minutes at room temperature.
(§7) 4) a mixed solution of 4× or 2× Sa-XL 665 and TK-antibody-Cryptate were prepared from HTRF detection buffer, 5 or 10 μl of the mixed solution of Sa-XL 665 and TK-antibody-Cryptate was added into each well, centrifuged at 1000 g for 30 seconds, and reacted at room temperature for 1 h.
(§8) 5) the fluorescence signals at 615 nm (cryptate) and 665 nm (XL665) were read with Envision 2104 or TECAN.
(§9) The data was analyzed using GraphPad Prism 6.0 or 7 software, and the dose-response curve was fitted with nonlinear S-curve regression, and the IC50 value was calculated therefrom.
(§10) Enzyme Inhibition Percent (%)=100-(Signalmpd-SignalAve_PC)/(SignalAve_VC-SignalAve_PC)×100
(In general: In TR-FRET formats the signal depends on donor and acceptor labels being close together.)

The target in another assay is MET F1200I (Homo sapiens, UniProt P08581, F1200I). As to the kind of experiment: Kinase inhibition experiment (HTRF KinEASE-TK kit), mutant MET F1200I. The class given is biochemical. The settings on record: read-out: IC50 (nM) of inhibition of mutant F1200I MET kinase, 10 concentrations, 3-fold dilution. Here is the method: as §1, §2, §3, §4, §5, §6, §7, §8, §9, §10

For assay [1], the target named is wild type (WT) MET kinase (Homo sapiens, UniProt P08581). As to the kind of experiment: Kinase inhibition experiment (HTRF KinEASE-TK kit), wild-type MET. The class given is biochemical. To be noted: read-out: IC50 (nM) of inhibition of wild type (WT) MET kinase, 10 concentrations, 3-fold dilution. Here is the method:
as §1, §2, §3, §4, §5, §6, §7, §8, §9, §10

The subject of a further assay is Hs746T cell line. As to the kind of experiment: Cell proliferation inhibition experiment (CellTiter-Glo), Hs746T. To be noted: read-out: IC50 (nM) of the proliferation inhibition of Hs746T cell line; Hs 746T; CTG; 72 h. Here is the method: CellTiter-Glo™ live cell detection kit adopts luciferase as the detection substance, and the luciferase needs the participation of ATP in the luminescence process. CellTiter-Glo™ reagent was added into the cell culture medium and the luminescence value was measured. The light signal is in direct proportion to the amount of ATP in the system, ATP is in direct correlation with number of living cells. Therefore, the proliferation of cells can be detected by detecting the content of ATP with CellTiter-Glo kit.
In the experiment, the proliferation inhibition effect of the prepared compounds on tumor cell lines Hs746T, EBC-1 and H1993 was measured by a celltiter-glo (CTG) method, and 50% inhibition concentration IC50 was calculated.
The compounds were determined on the selected cells, the solvent control was set and a total of 10 concentrations were detected, 2 replicates per concentration.
a) Cells in the logarithmic growth phase were harvested and counted by a […]. The cell viability was detected by a trypan blue exclusion method to ensure that the cell viability was over 90%. […]
d) The cell plate was left at room temperature for 20 minutes to stabilize the luminescence signal.
e) The cold light value was read.
The data was analyzed by GraphPad Prism 8 software, and the dose-response curve was fitted with nonlinear S-curve regression, and the IC50 value was calculated therefrom. […]

`C[C@H](CO)Nc1n[nH]c2nccc(Oc3ccc(NC(=O)c4cccc(-c5ccc(F)cc5)[n+]4[O-])cc3C(F)(F)F)c12`: the IC50 came out at 23.8 nM on MET D1228N, 8.6 nM at MET F1200I and 6.4 nM in assay [1].
The corresponding values for `C[C@H](CO)Nc1n[nH]c2nccc(Oc3ccc(NC(=O)c4cccc(-c5ccc(F)c(F)c5)[n+]4[O-])cc3F)c12` are 23.6 nM, 14.6 nM and 8.2 nM.
On to `C[C@H](CO)Nc1n[nH]c2nccc(Oc3ncc(NC(=O)c4cccc(-c5ccc(F)cc5)[n+]4[O-])cc3F)c12`, for which the IC50 was 24.5 nM at MET D1228N and 5.2 nM in assay [1].
As to `C=CC(O)CNc1n[nH]c2nccc(Oc3ccc(NC(=O)c4cccc(-c5ccc(F)cc5)[n+]4[O-])cc3F)c12` (centres unmarked), the IC50 at MET D1228N is 25.7 nM; at MET F1200I, 32.7 nM; in assay [1], 4.1 nM.
For `C[C@H](CO)Nc1n[nH]c2nccc(Oc3ccc(NC(=O)c4cccc(-c5ccc(F)cc5Cl)[n+]4[O-])cc3F)c12`, the IC50 stood at 27.1 nM at MET D1228N, 15.1 nM at MET F1200I and 25.9 nM in assay [1].
On to `C[C@H](CO)Nc1n[nH]c2nccc(Oc3ccc(NC(=O)c4cc(Cl)cc(-c5ccc(F)cc5)[n+]4[O-])cc3F)c12`, for which the IC50 on MET D1228N was determined as 16.9 nM; at MET F1200I it was 28.1 nM; in assay [1], 6.5 nM.
On to `C[C@H](CO)Nc1n[nH]c2nccc(Oc3ccc(NC(=O)c4cccc(-c5ccc(F)cc5)[n+]4[O-])c(F)c3)c12`, for which the IC50 at MET D1228N came out at 16.8 nM; at MET F1200I it was 5.6 nM; in assay [1], 0.4 nM.
On the same counts, the results for `Cc1ccc(C(=O)Nc2ccc(Oc3ccnc4[nH]nc(NC5CC(CO)C5)c34)c(Cl)c2)[n+]([O-])c1-c1ccc(F)cc1` (centres unmarked) are 48.7 nM, 35.2 nM and 7 nM.
On the same counts, the results for `C[C@H](CO)Nc1n[nH]c2nccc(Oc3ccc(NC(=O)c4cccc(-c5ccc(F)cc5)[n+]4[O-])nc3)c12` are 23.5 nM, 12 nM and 6.3 nM.
On the same counts, the results for `C[C@H](CO)Nc1n[nH]c2nccc(Oc3ccc(NC(=O)c4cccc(-c5ccc(F)cc5)[n+]4[O-])cc3)c12` are 29.3 nM, 15.7 nM and 2.2 nM.
On to `O=C(Nc1ccc(Oc2ccnc3[nH]nc(NCC4(O)CC4)c23)c(F)c1)c1cccc(-c2ccc(F)cc2)[n+]1[O-]`, for which the IC50 in the assay on Hs746T cell line was found to be 20.9 nM; on MET D1228N, 20.9 nM; on MET F1200I, 26.5 nM; in assay [1], 5.3 nM.
Turning to `Cc1cc(F)ccc1-c1cccc(C(=O)Nc2ccc(Oc3ccnc4[nH]nc(N[C@H](C)CO)c34)c(F)c2)[n+]1[O-]`, the figures for the IC50 (at MET D1228N; on MET F1200I; in assay [1]) were 27.8 nM, 13.1 nM and 4.6 nM, respectively.
Turning to `C[C@H](CO)Nc1n[nH]c2nccc(Oc3ccc(NC(=O)c4cccc(-c5cccc(C(F)(F)F)c5)[n+]4[O-])cc3F)c12`, the IC50 was 36.8 nM on MET D1228N and 5.3 nM in assay [1].
